In patent US9155743B2, “Bicyclic heterocycle compounds and their uses in therapy” (priority 2011, dated 2015):
Structures can show the parent of a compound that is named as a salt.

Target: cIAP-1 BIR3 domain (Homo sapiens (Human), UniProt Q13490)
Test: cIAP-1 in vitro competitive displacement binding assay (fluorescence polarization)
Conditions: AbuRPFK(5&6FAM)-amide probe (Probe B); given as ranges; read-out: IC50 or PI cIAP1

Row | SMILES | IC50 [nM]
1 | CCC1(CC)Oc2nc(NC(=O)[C@H](C)N)ccc2N(c2ccc(Cl)cc2)C1=O [Example 45, (S)-2-Amino-N-[1-(4-chloro-phenyl)-3,3-diethyl-2-oxo-2,3-dihydro-1H-pyrido[2,3-b][1,4]oxazin-6-yl]-propionamide hydrochloride] | 10 to 1000
2 | [2H]C([2H])([2H])[C@]([2H])(N)C(=O)Nc1ccc2c(n1)OC(CC)(CC)C(=O)N2c1ccc(Cl)cc1 [Example 46, (S)-2-Amino-N-[1-(4-chloro-phenyl)-3,3-diethyl-2-oxo-2,3-dihydro-1H-pyrido[2,3-b][1,4]oxazin-6-yl]-propionamide (2,3,3,3-d4) hydrochloride] | 10 to 1000
